The values below are quoted from earlier work in PMC7796559, “Connecting the conformational behavior of cyclic octadepsipeptides with their ionophoric property and membrane permeability” (Organic & biomolecular chemistry, 2020).

This data set concerns Caco-2. Also on record: method as in PMID 26067057, PMID 32121188. Particulars: cited from earlier work.

For the substance beauvericin [compound 6], the “Permeability in Caco-2 permeability assay” value is 580 ×10⁻⁶ cm/s.
